Values of other authors as cited in paper PMC6608616, “Conservation of the structure and function of bacterial tryptophan synthases” (2019).

Tested on: EcTrpAB
Details: previously characterized, ref Lane & Kirschner, 1983; cited from earlier work

N[C@@H](CO)C(=O)O
K m for serine: 370 µM
